# Measurements: article PMC10586543 (Advanced functional materials, 2023)
# Experiments:
# [1] = Urine accumulation at 1 h post-injection in uninjured mice; format: in vivo, mouse (C57BL/6J); conditions: i.v., 50 nmol kg^−1, ELISA, n = 4
# [2] = Blood circulation half-life in uninjured mice; format: in vivo, mouse (C57BL/6J); conditions: i.v., 50 nmol kg^−1, ELISA, %ID
substance,measurement,setting,value
Biotin-GGSGG-K(5FAM)-QEVYGAMP-K(CPQ2)-C-NH2 [calpain substrate peptide],peptide recovered from urine at 1 h post-injection,[1],greater majority of peptide was recovered from the urine
same,peptide remaining in blood circulation at 1 h post-injection,[2],~ 5%
